Laboratory results: US20260345619A1 (Principia Biopharma Inc., priority 2023, published 2026)

How the values were obtained:
[1] = Loss of asthma control (LOAC) events, 12-week ICS/LABA withdrawal study; type: in vivo, human
[2] = Asthma Quality of Life Questionnaire with Standardized Activities (AQLQ(S)); type: in vivo, human; details: for AQLQ global score change from baseline at Week 12, Mean / AQLQ global score change from baseline at Week 12, LS Mean: mITT; for AQLQ and AQLQ(S) effect (in words): both cohorts
[3] = 400 mg BID, all others than low EOS and low FeNO
[4] = 400 mg BID, baseline FeNO ≥35 ppb
[5] = 400 mg BID, baseline blood eosinophil level 2 <0.3 10^9/L
[6] = 400 mg TID, 2 asthma exacerbations within 2 years
[7] = 400 mg TID, baseline BMI ≥25-<30 kg/m^2
[8] = 400 mg TID, baseline weight ≥90 kg
[9] = 400 mg TID, low EOS (<0.15) and low FeNO (<25)

Compound: CC(C)(C=C(C#N)C(=O)N1CCC[C@@H](n2nc(-c3ccc(Oc4ccccc4)cc3F)c3c(N)ncnc32)C1)N1CCN(C2COC2)CC1 (mixture of isomers) [rilzabrutinib, (R)-2-[3-[4-amino-3-(2-fluoro-4-phenoxy-phenyl)pyrazolo[3,4-d]pyrimidin-1-yl]piperidine-1-carbonyl]-4-methyl-4-[4-(oxetan-3-yl)piperazin-1-yl]pent-2-enenitrile]
- incidence of LOAC events in subgroups ([1]; 400 mg BID or 400 mg TID, regardless of baseline demographic and disease characteristics, ICS/LABA dose, biomarkers, eosinophils, FeNO): numerical improvement in the incidence of LOAC events
- LOAC, incidence (in parentheses) ([1]; 400 mg BID, age at onset ≥40 years): (75.0)
- LOAC, incidence (in parentheses) ([1]; 400 mg BID, baseline FeNO level 1 ≥25 ppb): (45.0)
- LOAC, incidence (in parentheses) ([1]; 400 mg BID, smoking history Former): (75.0)
- LOAC, incidence (in parentheses) ([1]; 400 mg TID, FEV1 reversibility ≥12 %): (7.7)
- AQLQ global score change from baseline at Week 12, Mean ([2]; 400 mg BID, age <45 years): 0.62
- AQLQ global score change from baseline at Week 12, Mean ([2]; 400 mg BID, age at asthma onset <12 years): 0.89
- AQLQ global score change from baseline at Week 12, LS Mean ([2]; 400 mg BID, age at asthma onset ≥18-<40 years): 0.77
- AQLQ global score change from baseline at Week 12, LS Mean ([2]; 400 mg BID, age at asthma onset ≥40 years): 0.23
- AQLQ global score change from baseline at Week 12, LS Mean ([2]; 400 mg BID, age ≥45 years): 0.89
- AQLQ global score change from baseline at Week 12, LS Mean [2, 3]: 0.77 (0.22)
- AQLQ global score change from baseline at Week 12, Mean [2, 3]: 0.85 (0.99)
- AQLQ global score change from baseline at Week 12, LS Mean ([2]; 400 mg BID, baseline BMI <25 kg/m^2): 0.55
- AQLQ global score change from baseline at Week 12, LS Mean ([2]; 400 mg BID, baseline BMI ≥30 kg/m^2): 1.30
- AQLQ global score change from baseline at Week 12, LS Mean ([2]; 400 mg BID, baseline FeNO <35 ppb): 0.85 (0.23)
- AQLQ global score change from baseline at Week 12, Mean ([2]; 400 mg BID, baseline FeNO ≥25 ppb): 0.78 (1.05)
- AQLQ global score change from baseline at Week 12, LS Mean [2, 4]: 0.85 (0.40)
- AQLQ global score change from baseline at Week 12, Mean [2, 4]: 1.09 (1.01)
- AQLQ global score change from baseline at Week 12, Mean ([2]; 400 mg BID, baseline IgE <median 210.8 IU/mL): 0.73 (0.89)
- AQLQ global score change from baseline at Week 12, Mean ([2]; 400 mg BID, baseline IgE ≥100 IU/mL): 0.78 (0.94)
- AQLQ global score change from baseline at Week 12, Mean ([2]; 400 mg BID, baseline blood eosinophil level 1 <0.15 10^9/L): 0.82 (1.24)
- AQLQ global score change from baseline at Week 12, Mean ([2]; 400 mg BID, baseline blood eosinophil level 1 ≥0.15 10^9/L): 0.85 (0.91)
- AQLQ global score change from baseline at Week 12, LS Mean [2, 5]: 0.89 (0.29)
- AQLQ global score change from baseline at Week 12, Mean [2, 5]: 0.90 (1.18)
- AQLQ global score change from baseline at Week 12, Mean ([2]; 400 mg BID, baseline blood eosinophil level 2 ≥0.3 10^9/L): 0.77 (0.73)
- AQLQ global score change from baseline at Week 12, Mean ([2]; 400 mg BID, baseline pre-bronchodilator FEV1 <2.022 L): 0.89
- AQLQ global score change from baseline at Week 12, LS Mean ([2]; 400 mg BID, baseline weight <60 kg): 0.82
- AQLQ global score change from baseline at Week 12, LS Mean ([2]; 400 mg BID, baseline weight ≥60-<90 kg): 0.77
- AQLQ global score change from baseline at Week 12, Mean ([2]; 400 mg BID, former smokers): 0.73
- AQLQ global score change from baseline at Week 12, Mean ([2]; 400 mg BID, low EOS (<0.15) and low FeNO (<25)): 0.71 (1.25)
- AQLQ global score change from baseline at Week 12, LS Mean ([2]; 400 mg BID, male): 0.73
- AQLQ global score change from baseline at Week 12, LS Mean [2, 6]: 0.41
- AQLQ global score change from baseline at Week 12, Mean [2, 6]: 0.34
- AQLQ global score change from baseline at Week 12, Mean ([2]; 400 mg TID, Western Countries): 0.78 (0.75)
- AQLQ global score change from baseline at Week 12, LS Mean ([2]; 400 mg TID, age at asthma onset <18 years): 0.45
- AQLQ global score change from baseline at Week 12, Mean ([2]; 400 mg TID, age at asthma onset ≥18-<40 years): 0.34
- AQLQ global score change from baseline at Week 12, Mean ([2]; 400 mg TID, age ≥45 years): 0.41 (1.01)
- AQLQ global score change from baseline at Week 12, Mean ([2]; 400 mg TID, background ICS dose medium): 0.41
- AQLQ global score change from baseline at Week 12, LS Mean [2, 7]: 0.96 (0.16)
- AQLQ global score change from baseline at Week 12, Mean [2, 7]: 0.75 (0.71)
- AQLQ global score change from baseline at Week 12, Mean ([2]; 400 mg TID, baseline FEV1 reversibility <12%): 0.42
- AQLQ global score change from baseline at Week 12, LS Mean ([2]; 400 mg TID, baseline FEV1 reversibility ≥12%): 0.63
- AQLQ global score change from baseline at Week 12, Mean ([2]; 400 mg TID, baseline FeNO <35 ppb): 0.41 (0.84)
- AQLQ global score change from baseline at Week 12, LS Mean ([2]; 400 mg TID, baseline IgA <median 2190 mg/L): 0.77 (0.17)
- AQLQ global score change from baseline at Week 12, LS Mean ([2]; 400 mg TID, baseline IgA ≥median 2190 mg/L): 0.41 (0.18)
- AQLQ global score change from baseline at Week 12, Mean ([2]; 400 mg TID, baseline IgE <100 IU/mL): 0.55 (0.59)
- AQLQ global score change from baseline at Week 12, Mean ([2]; 400 mg TID, baseline IgE ≥100 IU/mL): 0.42 (0.98)
- AQLQ global score change from baseline at Week 12, Mean ([2]; 400 mg TID, baseline IgE ≥median 121.85 IU/mL): 0.31 (1.03)
- AQLQ global score change from baseline at Week 12, Mean ([2]; 400 mg TID, baseline blood eosinophil level 1 <0.15 10^9/L): 0.41 (0.58)
- AQLQ global score change from baseline at Week 12, LS Mean ([2]; 400 mg TID, baseline blood eosinophil level 1 ≥0.15-<0.3 10^9/L): 0.39 (0.29)
- AQLQ global score change from baseline at Week 12, LS Mean ([2]; 400 mg TID, baseline blood eosinophil level 1 ≥0.3 10^9/L): 0.72 (0.28)
- AQLQ global score change from baseline at Week 12, Mean ([2]; 400 mg TID, baseline blood eosinophil level 2 <0.3 10^9/L): 0.42 (0.73)
- AQLQ global score change from baseline at Week 12, LS Mean ([2]; 400 mg TID, baseline blood eosinophil level 2 ≥0.3 10^9/L): 0.72 (0.28)
- AQLQ global score change from baseline at Week 12, LS Mean ([2]; 400 mg TID, baseline percent predicted FEV1 <77%): 0.55
- AQLQ global score change from baseline at Week 12, Mean ([2]; 400 mg TID, baseline percent predicted FEV1 <80%): 0.41
- AQLQ global score change from baseline at Week 12, Mean ([2]; 400 mg TID, baseline weight <60 kg): 0.78 (0.40)
- AQLQ global score change from baseline at Week 12, LS Mean [2, 8]: 0.32 (0.18)
- AQLQ global score change from baseline at Week 12, Mean [2, 8]: 0.26 (0.89)
- AQLQ global score change from baseline at Week 12, LS Mean ([2]; 400 mg TID, former smokers): −0.11
- AQLQ global score change from baseline at Week 12, Mean ([2]; 400 mg TID, former smokers): −0.55
- AQLQ global score change from baseline at Week 12, LS Mean [2, 9]: 0.55 (0.19)
- AQLQ global score change from baseline at Week 12, Mean [2, 9]: 0.41 (0.64)
- AQLQ global score change from baseline at Week 12, LS Mean ([2]; 400 mg TID, male): 0.41 (0.18)
- AQLQ global score change from baseline at Week 12, Mean ([2]; 400 mg TID, never smokers): 0.55
- AQLQ and AQLQ(S) effect (in words) [2]: improvement in quality of life as measured by AQLQ
- AQLQ and AQLQ(S) effect (in words) ([2]; listed as Rilzabrutinib): significant improvements in AQLQ and AQLQ(S)
